Source: US20160052937A1, “Tetrahydroimidazo[1,5-d][1,4]oxazepine compound” (Eisai R&D Management Co., Ltd., priority 2014, published 2016)

By UniProt entry, the sequences of proteins in these tests, tags left out. Residues count along the entry.
UniProt Q14416, 19-872 limits assumed: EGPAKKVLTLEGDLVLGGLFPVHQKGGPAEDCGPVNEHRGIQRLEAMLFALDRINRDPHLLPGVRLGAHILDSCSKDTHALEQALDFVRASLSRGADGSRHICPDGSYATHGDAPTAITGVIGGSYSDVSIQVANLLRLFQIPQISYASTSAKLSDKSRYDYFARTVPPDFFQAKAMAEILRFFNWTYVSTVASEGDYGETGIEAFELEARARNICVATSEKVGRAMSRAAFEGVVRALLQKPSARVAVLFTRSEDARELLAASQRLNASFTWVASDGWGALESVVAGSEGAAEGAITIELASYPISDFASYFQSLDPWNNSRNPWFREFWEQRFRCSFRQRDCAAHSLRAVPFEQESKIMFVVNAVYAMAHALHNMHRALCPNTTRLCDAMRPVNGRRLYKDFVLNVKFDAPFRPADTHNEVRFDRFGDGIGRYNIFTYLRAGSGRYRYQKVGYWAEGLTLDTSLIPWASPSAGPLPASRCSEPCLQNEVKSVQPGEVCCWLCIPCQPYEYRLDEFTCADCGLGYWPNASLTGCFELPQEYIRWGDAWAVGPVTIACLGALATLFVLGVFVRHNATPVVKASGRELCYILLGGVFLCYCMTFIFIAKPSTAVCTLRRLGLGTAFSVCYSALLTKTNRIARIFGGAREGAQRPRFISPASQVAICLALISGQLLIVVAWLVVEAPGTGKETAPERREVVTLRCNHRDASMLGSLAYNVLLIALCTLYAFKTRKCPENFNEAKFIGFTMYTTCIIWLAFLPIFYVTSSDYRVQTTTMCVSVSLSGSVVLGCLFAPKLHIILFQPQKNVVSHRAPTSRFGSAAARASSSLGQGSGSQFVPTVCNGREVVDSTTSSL

Target: human metabotropic glutamate receptor 2 (mGluR2) (Homo sapiens, UniProt Q14416)
Assay: [35S]GTPγS binding assay (Affinity to mGluR2)
Details: read-out: GTPγS binding assay IC50; cell membrane fraction of HEK293 cells stably expressing human mGluR2; glutamic acid 10 μM
Protocol: (Preparation of Cell Membrane Fraction of HEK293 Cells Stably Expressing Human Metabotropic Glutamate Receptor 2 (mGluR2))
HEK293 cells stably expressing human mGluR2 and human glutamate transporter SLC1A3 were cultured in a Dulbecco's modified Eagle's medium with 10% fetal bovine serum (50 units/mL of penicillin, 50 μg/mL of streptomycin, 60 μg/mL of geneticin, 400 μg/mL of hygromycin B and 2 mM of glutamine) at 37° C. under 5% CO2. Confluent cell cultures were washed twice with PBS(−), and then scraped off with a cell scraper, and subjected to centrifugal separation at 4° C. and 1500 rpm for 5 minutes for collecting cells. The centrifuged sediment (cell pellet) was homogenized in a 20 mM HEPES buffer containing 10 mM EDTA (pH 7.4) by using sonicator and centrifuged at 4° C. and 1500×g for 30 minutes. […]
The frozen cell membrane fraction prepared as described above was thawed before use, and the resultant was diluted with a buffer for a binding assay (final concentrations: 20 mM HEPES, 100 mM NaCl, 1 mM MgCl2, 3 μM GDP, 300 μg/mL saponin, 0.1% BSA). […] After the incubation, the plate was subjected to the centrifugal separation at 2,500 rpm and room temperature, and then, membrane cell binding radioactivity was measured with a top count. […]

- IC50: 3.6 nM
SMILES: CCOc1ccc(-c2nc(-c3ccc(S(=O)(=O)NC(C)C)cc3)c3n2C[C@@H](CF)OCC3)cc1
